{"source": "paper PMC11110763", "about": "“Carltonine-derived compounds for targeted butyrylcholinesterase inhibition” (RSC Medicinal Chemistry, 2024)", "conditions": "PAMPA, pH 7.4", "data": [{"smiles": "COc1ccc2c3c1O[C@H]1C[C@@H](O)C=C[C@@]31CCN(C)C2", "note": "[Galantamine, reference compound]", "values": [{"measurement": "Pe ± SEM", "value": "6.7 ± 0.7 ×10^−6 cm s^−1"}]}]}
